The values that follow come from PubChem BioAssay AID583 (Sanford-Burnham Center for Chemical Genomics, 2007).

Sequences of proteins named here, by UniProt entry; tags and fusion partners are left off.
UniProt P0DMV8, whole entry: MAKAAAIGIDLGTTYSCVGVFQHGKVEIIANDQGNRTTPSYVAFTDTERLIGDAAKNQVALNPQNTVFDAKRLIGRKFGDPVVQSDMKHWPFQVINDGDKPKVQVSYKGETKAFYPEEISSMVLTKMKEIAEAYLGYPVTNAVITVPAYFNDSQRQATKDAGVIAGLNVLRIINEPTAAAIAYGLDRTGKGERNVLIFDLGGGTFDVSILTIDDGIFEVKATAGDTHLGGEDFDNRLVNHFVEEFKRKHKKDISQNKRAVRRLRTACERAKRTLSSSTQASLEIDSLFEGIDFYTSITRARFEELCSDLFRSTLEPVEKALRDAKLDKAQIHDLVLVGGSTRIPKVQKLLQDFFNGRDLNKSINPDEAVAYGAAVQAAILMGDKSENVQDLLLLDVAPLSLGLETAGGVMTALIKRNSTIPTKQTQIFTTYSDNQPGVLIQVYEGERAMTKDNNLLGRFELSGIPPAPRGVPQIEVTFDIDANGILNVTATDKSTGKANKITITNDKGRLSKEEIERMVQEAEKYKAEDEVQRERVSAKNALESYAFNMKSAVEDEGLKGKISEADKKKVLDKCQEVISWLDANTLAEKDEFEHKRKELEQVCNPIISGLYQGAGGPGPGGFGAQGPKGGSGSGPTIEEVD

This is a selection; strong and weak results do not stand in their true shares. Activity calls are given as the source filed them. Cut-off read from the data, not from the text of the source: active = displacement above about 50%; inactive = the rest.

The target of the assay is Heat shock 70 kDa protein 1A (Homo sapiens) (UniProt P0DMV8). Put plainly: Hsp70 inhibitors, probe displacement, primary screen, biochemical, fluorescence polarization (AID 583).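 Note: plate controls were vehicle for no effect and reference ligand for full effect.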 The settings on record: mP, at 20 µM, stronger effect = higher value. (In general: Fluorescence polarisation rises when a labelled molecule tumbles more slowly, as on binding a larger partner.)
Take `CCc1ccc(OP(C)(=O)O)cc1`: the displacement is inactive: -1.9%.
